Literature values in patent US5635458A, “Water-based drilling fluids for reduction of water adsorption and hydration of argillaceous rocks” (M-I Drilling Fluids, L.L.C., priority 1995, dated 1997).

Details: in vivo; cited from earlier work

CC(O)COC(C)COC(C)CO (stereo not shown) [Tripropylene Glycol]
single-dose oral LD50: ~ 3 gm/KG
